One data set has as its target T1, 5-HT1AR (Homo sapiens, UniProt P08908).
T1 construct: purchased Perkin Elmer
Put plainly: 5-HT1AR membrane fragments diluted in solutions, lyophilized 24 hours, rehydrated and assessed for protein function. The data set is classed as biochemical. The following applies: for Rate (single exponential fit): diluted in 200 mM sucrose in PBS, after lyophilization; for protein function after lyophilization: 24 hours of lyophilization, rehydrated. How it is done:
After 24 hours of lyophilization, samples were rehydrated and assessed for protein function.
Prepared and settled pGUPs were transferred to a flat bottom 96-well plate. Agonist 8-OH-DPAT was added to each well to a final concentration of 150 nM immediately prior to reading fluorescence. Control pGUPs were run without the addition of the agonist. Rehydration buffer with and without agonist and protein were read as positive and negative controls. Samples were read at physiological temperature (37° C.) every 5 minutes for twelve hours to ensure complete activity assessment. Fluorescence reading of BODIPY-GTPγS unquenching was done on a Biotek Synergy H4 Microplate Reader equipped with a xenon flash lamp. Excitation was set to 485/20 nm and emission at 528/20 nm at a read height of 7 mm.
Fluorescence microtiter results were collect and analyzed using JMP. Six separate observations were fitted and averaged to obtain a single curve with standard error mean values. Rates were fitted to the JMP Mechanistic Growth curve using a single exponential. Statistical analysis using a Tukey-Kramer pairwise comparison of means were done using JMP with a 95% confidence interval (α=0.05).

By UniProt entry, the sequences of proteins in these tests, tags left out.
UniProt P08908, whole entry: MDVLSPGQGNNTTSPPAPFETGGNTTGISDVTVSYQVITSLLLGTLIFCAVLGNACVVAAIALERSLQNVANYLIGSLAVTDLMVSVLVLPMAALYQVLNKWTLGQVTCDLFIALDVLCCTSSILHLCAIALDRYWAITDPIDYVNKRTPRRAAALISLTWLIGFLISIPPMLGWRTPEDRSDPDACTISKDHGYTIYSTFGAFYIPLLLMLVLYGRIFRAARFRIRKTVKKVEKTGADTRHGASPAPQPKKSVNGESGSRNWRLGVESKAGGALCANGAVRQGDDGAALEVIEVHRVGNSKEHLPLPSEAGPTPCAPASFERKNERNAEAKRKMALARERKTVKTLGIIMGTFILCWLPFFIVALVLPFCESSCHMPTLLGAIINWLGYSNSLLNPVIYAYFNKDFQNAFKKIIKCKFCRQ

In data set [1] the target is T2, human serotonin 5-HT1A receptor (5-HT1AR) (Homo sapiens, UniProt P08908).
T2 construct: purchased Perkin Elmer
The data set can be described thus: 5-HT1A activity assay via microplate reader (BODIPY-GTPγS unquenching) in pGUPs. The data set is classed as biochemical.

Consider “5-HT1AR membrane fragments: Membrane fragments containing 5-HT1AR (Perkin Elmer), bound to spiperone and diluted in water, PBS or sucrose buffer”, for which the “Rate (single exponential fit)” value with 5-HT1AR (agonist-incubated (8-OH-DPAT)) was 7.18±0.12 ×10^−2 min^−1; with 5-HT1AR (control protein (no agonist)), 7.23±0.12 ×10^−2 min^−1. Further, the “protein function after lyophilization” value in the data set with 5-HT1AR (diluted in Milli Q water) and with 5-HT1AR (diluted in PBS (pH 7.4)) was “did not retain its function” in each case.
Take `CSc1ccc2c(c1)C(N1CCN(C)CC1)Cc1ccccc1S2.O=C(O)/C=C\C(=O)O` (stereo not drawn) [Methiothepin, methiothepin maleate]: the “Rate (protein functional rate)” value in data set [1] (14 μM antagonist in pGUPs, agonist 8-OH-DPAT, 37° C., 12 hours) was 0.085 min⁻¹. Moreover, in data set [1] (antagonist in pGUPs), the “Effect on protein functional rate” value was “reduce the protein functional rate”.

For the origin of these results see patent publication US20180177729A1, “G PROTEIN-COUPLED RECEPTORS INCORPORATED INTO REHYDRATED POLYMER VESICLES RETAIN FUNCTIONALITY” (UNIVERSITY OF SOUTHERN CALIFORNIA, priority 2016, published 2018).
